The list shows a part of the results, in another mix than the full data. The source made the active and inactive calls. No stated cut-off is given here; in the data, active means inhibition above about 50%; inactive means the rest.

In the assay the target is Dual specificity tyrosine-phosphorylation-regulated kinase 1A (Rattus norvegicus) (UniProt Q63470). Briefly: rat Dyrk1A kinase inhibitors, primary screen, biochemical, single point, plate reader (AID 504441).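 Further: plate controls were vehicle with enzyme for no effect and no enzyme for full effect.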 Particulars: ADP-Glo luminescence, NFATc1 peptide, at 12.5 µM, stronger effect = higher value. In general terms: In ADP-Glo the light output rises with the ADP produced.
As a reminder, the inhibition is the relative decrease from the control value, in per cent. Take `CCOC(=O)N1CCC(Nc2ccc(C)cc2)CC1`: the inhibition is inactive: 10.5%.
Next, `N/C(=N\O)c1c(N)no[n+]1[O-]`: inactive: -3.23%.
On to `O=C(OC1CN2CCC1CC2)C1c2ccccc2C=Cc2ccccc21` (stereo not drawn), for which the inhibition was inactive: -3.22%.
Next, `COc1cc(C(=O)NCC2(N3CCOCC3)CCCCC2)cc(OC)c1C`: inactive: 2.11%; `COc1ccc(C(=O)NCC2(N3CCOCC3)CCCCC2)cc1OC`: inactive: -1.18%.
As to `CN(C)C1(CNC(=O)c2cccc(C#N)c2)CCCCC1`, the inhibition was inactive: 2.06%.
For the compound `c1ccc(CN2CCC(Nc3ccccc3)CC2)cc1`, the inhibition is inactive: -1.09%.
In the case of `CCCN1CCC(Nc2cc(OC)cc(OC)c2)CC1` it was inactive: -3.13%; in that of `Cc1cc(N(CCCl)CCCl)ccc1C=O`, inactive: 4.39%.
In the case of `CC(C)(C)OC(=O)N1CCC(N(C(=O)c2ccccc2)c2ccc(Cl)cc2)CC1` it was inactive: -0.211%; in that of `Cc1ccccc1NC1(C#N)CCN(Cc2ccccc2)CC1`, inactive: -2.68%; in that of `CCN1CCC(Nc2cccc(F)c2)CC1`, inactive: 3.78%.
In the case of `O=C(NCC1(N2CCCCC2)CCCCC1)c1ccco1` it was inactive: 0.0147%; in that of `Cn1c(=O)[nH]cc(N(CCCl)CCCl)c1=O`, inactive: 3.17%; in that of `CN(C)c1ccc(C(=O)NCC2(N3CCCCC3)CCCCC2)cc1`, inactive: 0.4%.
For `COc1cc(OC)cc(C(=O)NCC2(N3CCCCC3)CCCCC2)c1`, the inhibition is inactive: -3.63%.
On to `Cc1ccc(C(=O)NCC2(N3CCCCC3)CCCCC2)o1`, for which the inhibition was inactive: 3%.
Next, `Fc1ccccc1NC1CCN(Cc2ccccc2)CC1`: inactive: -7.93%; `COc1cccc(C(=O)N(c2cc(C)cc(C)c2)C2CCN(C(=O)OC(C)(C)C)CC2)c1`: inactive: 0.574%; `COc1cc(OC)cc(C(=O)NCC2(N3CCOCC3)CCCCC2)c1`: inactive: -6.85%.
Consider `CCC(CO)(C(=O)OC1CN2CCC1CC2)c1ccccc1` (stereo not drawn), for which the inhibition is inactive: 7.27%.
In the case of `CN1CCC(Nc2ccc(Cl)cc2)CC1` it was inactive: 1.1%; in that of `CCOc1ncccc1C(=O)NCC1(N2CCOCC2)CCCCC1`, inactive: -1.14%.
In the case of `CC(C)(C)OC(=O)N1CCC(Nc2ccccc2)CC1` it was inactive: 18.1%; in that of `O=C(O)C1(Nc2ccccc2)CCN(Cc2ccccc2)CC1`, inactive: -0.6%; in that of `CCCOc1ccc(C(=O)NCC2(N(C)C)CCCCC2)cc1`, inactive: -1.76%.
As for `O=C(NCC1(N2CCCCC2)CCCCC1)c1ccc(Cl)nc1`, the inhibition is inactive: -11.8%.
Next, `Cc1cc(C)cc(N(C(=O)c2ccccc2)C2CCN(C(=O)OC(C)(C)C)CC2)c1`: inactive: 2.79%; `O=C(NCC1(N2CCOCC2)CCCCC1)c1cc2ccccc2o1`: inactive: 4.38%.
Next, `O=C(OC1CN2CCC1CC2)C1c2ccccc2Oc2ccccc21` (stereo not drawn): inactive: -0.693%; `N#CC1(Nc2ccccc2)CCN(Cc2ccccc2)CC1`: inactive: -2.04%; `O=C(NCC1(N2CCCCC2)CCCCC1)c1ccc(Cl)s1`: inactive: -9.97%.
As for `CCOC(=O)N1CCC(Nc2ccc(OC)cc2)CC1`, the inhibition was inactive: -49.7%.
With `COc1ccc(C(=O)NCC2(N3CCCCC3)CCCCC2)cc1`, the inhibition was inactive: -5.24%.
On to `COc1ccc(C(=O)NCC2(N3CCCCC3)CCCCC2)c(OC)c1OC`, for which the inhibition is inactive: -3.46%.
In the case of `CC(C)(C)OC(=O)N1CCC(N(C(=O)c2ccccc2)c2ccc(F)cc2)CC1` it was inactive: -1.23%; in that of `O=C(NCC1(N2CCCCC2)CCCCC1)c1ccc(=O)[nH]c1`, inactive: -3.38%; in that of `O=C(NCC1(N2CCCCC2)CCCCC1)c1cccs1`, inactive: 14.1%.
Next, `CSc1ccccc1C(=O)NCC1(N2CCCCC2)CCCCC1`: inactive: -1.5%.
Next, `COc1cc(C(=O)NCC2(N(C)C)CCCCC2)ccc1OC(F)F`: inactive: -3.36%.
As for `O=C1CCN(Cc2ccccc2)CC1`, the inhibition was inactive: -14.8%.
As for `CCOc1ccc(C)cc1CN(CCCl)CCCl`, the inhibition is inactive: 5.27%.
For `O=C(NCC1(N2CCCCC2)CCCCC1)c1ccc(F)cc1`, the inhibition was inactive: -8.07%.
Next, `CCCCOc1ccc(C(=O)NCC2(N3CCOCC3)CCCCC2)cc1`: inactive: 13.7%; `O=P1(N(CCCl)CCCl)SCCCS1`: inactive: -1.54%; `CCOC(=O)N1CCC(Nc2ccc(F)cc2)CC1`: inactive: 0.253%.
Next, `COc1ccc(NC2CCN(CCc3ccccc3)CC2)c(OC)c1`: inactive: 1.52%; `O=C(NCC1(N2CCCCC2)CCCCC1)c1cccc(C(F)(F)F)c1`: inactive: 3%.
Turning to `O=C(NCC1(N2CCOCC2)CCCCC1)c1cc(=O)[nH]c2ccccc12`, the inhibition is inactive: -13.3%.
In the case of `COc1cc(C(=O)NCC2(N3CCCCC3)CCCCC2)ccc1OC(F)F` it was inactive: 7.42%; in that of `COc1ccc(NC2CCN(C(=O)OC(C)(C)C)CC2)cc1`, inactive: -1.13%.
Consider `CC(C)c1ccc(C(=O)NCC2(N3CCOCC3)CCCCC2)cc1`, for which the inhibition was inactive: 11.8%.
As for `CN1CCN(CCOC(=O)C(O)(c2ccccc2)c2ccccc2)CC1`, the inhibition is inactive: -3.32%.
In the case of `O=C(NCC1(N2CCCCC2)CCCCC1)c1ccc(OC(F)F)cc1` it was inactive: 1.48%; in that of `N#CC1(Nc2ccccc2)CCN(CCc2ccccc2)CC1`, inactive: -7.17%; in that of `CSc1ccc(C(=O)NCC2(N3CCOCC3)CCCCC2)cc1`, inactive: 16.3%.
Regarding `O=C(NCC1(N2CCCCC2)CCCCC1)c1cccc([N+](=O)[O-])c1`, the inhibition was inactive: 2.86%.
In the case of `O=C(NCC1(N2CCCCC2)CCCCC1)c1cncc(Br)c1`, the inhibition was inactive: 11.5%.
Take `CN1CCC(Nc2cccc(F)c2)CC1`: the inhibition was inactive: 0.565%.
Next, `CCCOc1ccc(C(=O)NCC2(N(C)C)CCCCC2)cc1OC`: inactive: -0.163%; `COc1ccc(CN(CCCl)CCCl)cc1Cl`: inactive: -1.54%; `CN(C)c1cccc(C(=O)NCC2(N3CCCCC3)CCCCC2)c1`: inactive: -5.87%.
Next, `COc1cc(OC)c(C(=O)NCC2(N(C)C)CCCCC2)cc1OC`: inactive: -0.21%.
